# Assay results from ChEMBL document CHEMBL2150933, “A novel mithramycin analogue with high antitumor activity and less toxicity generated by combinatorial biosynthesis” (J Med Chem, 2012).
# How the values were obtained:
# Format in all cases: organism-based
# [1] = (§1) Toxicity in ip dosed CD1 mouse administered as single dose; conditions: CD1, mouse, in vivo
# [2] = tested on: Mus musculus; assay: Toxicity in iv dosed CD1 mouse administered as single dose; conditions: in vivo
# [3] = tested on: Mus musculus; assay: as §1; conditions: mouse, in vivo
# [4] = tested on: Mus musculus; assay: Toxicity in iv dosed CD1 mouse administered Q3D for 8 days; conditions: in vivo, 192 h
smiles,measurement,setting,value
CO[C@H](C(=O)C(C)=O)[C@@H]1Cc2cc3cc(O[C@H]4C[C@@H](O[C@H]5C[C@@H](O)[C@H](O)[C@@H](C)O5)[C@H](O)[C@@H](C)O4)c(C)c(O)c3c(O)c2C(=O)[C@H]1O[C@H]1C[C@@H](O[C@H]2C[C@@H](O[C@H]3C[C@H](O)[C@H](O)[C@@H](C)O3)[C@H](O)[C@@H](C)O2)[C@H](O)[C@@H](C)O1,MTD,[1],6.25 mg/kg
CO[C@H](C(=O)[C@@H](O)[C@@H](C)O)[C@@H]1Cc2cc3cc(O[C@H]4C[C@@H](O[C@H]5C[C@@H](O)[C@H](O)[C@@H](C)O5)[C@H](O)[C@@H](C)O4)c(C)c(O)c3c(O)c2C(=O)[C@H]1O[C@H]1C[C@@H](O[C@H]2C[C@@H](O[C@H]3C[C@](C)(O)[C@H](O)[C@@H](C)O3)[C@@H](O)[C@@H](C)O2)[C@H](O)[C@@H](C)O1 [PLICAMYCIN],MTD,[2],2 mg/kg
same,MTD,[3],6.25 mg/kg
same,MTD,[4],1.5 mg/kg
